Experimental findings from PubChem BioAssay AID540267 (National Center for Advancing Translational Sciences (NCATS), 2011) are described below.

Only a part is listed here, and it is no random draw. The source made the active and inactive calls. Cut-off read from the data, not from the text of the source: active = activity change below about -80%; inconclusive = between about -30% and that limit; inactive = weaker than that.
% is set by controls: 0 for no effect and ±100 for the full control effect.

This test is described as follows: Small Molecules that selectively kill Giardia lamblia: qHTS.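 Note: parasites exposed to compound for two days anaerobically before the ATP read.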 Particulars: Giardia lamblia trophozoite viability; at 7.66 µM; hits give low values. An excerpt:
Giardia lamblia is a human pathogen afflicting impoverished nations, and the most common cause of outbreaks of diarrhea in the United States. Giardia has been classified by the CDC as a category B bioterrorism organism. The favored anti giardiasis drugs in the US are metronidazole or tinidazole, compounds that have undesirable side effects. Moreover, increasing resistance to drug regimes and recurrence are a concern. It is thus clear that alternative drug treatments are needed.
In a collaboration between the University of Maryland, College Park and the NIH Chemical Genomics Center, a bioluminescence Giardia viability assay based on the trophozoites' ATP content was developed. This assay is suitable for high throughput screening, and miniaturized the assay for compound screening in 1536-well plates. The goal of the project is to screen the Molecular Libraries Small Molecule Repository (MLSMR) for compounds that selectively kill Giardia trophozoites.
NIH Chemical Genomics Center [NCGC]
NIH Molecular Libraries Probe Centers Network [MLPCN]
Assay Submitter (PI): Osnat Herzberg, University of Maryland, College Park, MD.
1. Dispense 2 ul/well media
2. Dispense 23 nl/well compounds
3. Dispense 4 ul/well Giardia trophozoites at a concentration of 100 cells/well
4. Incubate 48 hrs at 37 deg C anaerobically
5. Dispense 4 ul/well ATPLite 1-Step Luminescence assay kit
6. Incubate 15-30 min at room temperature
7. Read luminescence signal on ViewLux plate reader
With `CC(C)CC(=O)NC(Sc1ccc(Cl)cc1)C(Cl)(Cl)Cl` (stereo not given), the activity change was inactive: 0.469%. Under `Nc1cc(N)c2nonc2c1[N+](=O)[O-]` stands inactive: 10.8%; under `O=C(NC(Sc1ccncn1)C(Cl)(Cl)Cl)c1ccccc1` (stereo not given), inactive: 7.02%.

Turning to `Oc1ccccc1CNc1ccccn1`, the activity change was inactive: -6.75%. To `Cc1ccc(N/C(=N/P(=O)(N2CCOCC2)N2CCOCC2)N2CCOCC2)cc1` belongs inactive: 2.89%. To `CN(C(=O)Cc1ccc(Cl)c(Cl)c1)[C@H]1CCCC[C@H]1N1CCCC1` belongs inactive: -3.06%; to `Cc1ccc(OP(=O)(Nc2nccs2)Oc2ccc(C)cc2)cc1`, inactive: 5.86%; to `COc1ccccc1OP(=O)(Nc1ccc(C)cn1)Oc1ccccc1OC`, inactive: -9.33%. Under `Clc1ccc(Cl)c(NC2=NCC(CBr)S2)c1` (stereo not given) stands inactive: -2.29%. `CN1CCCC(OC(=O)C(c2ccccc2)c2ccccc2)C1` (stereo not given): the activity change is inactive: -11.5%. Under `CCN(N=Nc1nonc1N)c1nonc1N` stands inactive: -1.45%; under `CCCC1OP(N)(=O)OCC1CC` (stereo not given), inactive: -1.64%; under `CC(=O)Nc1ccc([As](=O)(O)O)cc1`, inactive: -4.66%. Under `O=P(Nc1nc2ccc(Cl)cc2s1)(c1ccccc1)c1ccccc1` stands inactive: -22.7%; under `Cc1ccc(NP(=O)(Oc2ccccc2F)Oc2ccccc2F)nc1`, inactive: -4.8%. To `CN(C(=O)Cc1ccc(Cl)c(Cl)c1)[C@H]1CCCC[C@@H]1N1CCCC1` belongs inactive: 3.55%; to `CCOP(=O)(Nc1ccccc1)OCC`, inactive: -5.08%. For `Cc1cc(SC(NC(=O)c2ccc(F)cc2)C(Cl)(Cl)Cl)ncn1` (stereo not given), the activity change was inactive: 2.87%. On to `CC(C)(C)C(=O)NC(Sc1ccncn1)C(Cl)(Cl)Cl` (stereo not given), for which the activity change was inactive: 0.906%. Under `O=[N+]([O-])c1ncn(CCn2ncnc2[N+](=O)[O-])n1` stands inactive: -17.9%; under `O=[N+]([O-])c1cccc(NC2=NCC(CBr)S2)c1` (stereo not given), inactive: -21.1%. Under `COC(=O)C1(C)COP(=O)(Nc2ccccc2)OC1` (stereo not given) stands inactive: -3.37%. With `O=C(O)CNc1ccc([As](=O)(O)O)cc1`, the activity change was inactive: -8.35%. Under `O=P1(N(CCCl)CCCl)OCCCS1` (stereo not given) stands inactive: -18.5%. To `O=C(Nc1cc([As](=O)(O)O)ccc1O)c1ccccc1` belongs inactive: -10.1%; to `O=P(/N=c1/nc(-c2ccccc2)n(-c2ccccc2)s1)(Nc1ccccc1)Nc1ccccc1`, inactive: 31.1%; to `C[N+]1=C2C=CC=CC=C2SC12C([N+](=O)[O-])=CC([N+](=O)[O-])=C[C-]2[N+](=O)[O-]` (stereo not given), active: -86.3%. To `Nc1ccc([As](=O)(O)c2ccc(N)cc2)cc1` belongs inactive: 0.0025%; to `CCN(/C(=N/P(=O)(N1CCOCC1)N1CCOCC1)N1CCOCC1)c1ccc(OC)cc1`, inactive: -0.5%. For the compound `CN(C)C(=O)OCCc1n(C)cc[n+]1C`, the activity change is inactive: -0.919%. To `CC(C)=N/N=C(\N)N[N+](=O)[O-]` belongs inactive: 1.62%; to `CC1CCN(C(=O)Oc2c(Cl)cc(Cl)c3cccnc23)CC1`, inactive: 17.6%; to `COc1ccc(C2=NCC(CBr)S2)cc1` (stereo not given), inactive: -1.19%. Under `CC(=O)N1C2C3N(C(C)=O)C1C1N(C(C)=O)C(C(N1C(C)=O)N3C(C)=O)N2C(C)=O` stands inactive: -15.9%; under `CCc1nc2c(n1)c1c(non1O)c1c2no[n+]1[O-]`, inactive: -8.45%.

Take `O=[N+]([O-])c1cc([N+](=O)[O-])c(CCNc2ccccc2)c([N+](=O)[O-])c1`: the activity change is inactive: -17.9%. To `Cc1ccc(NP(=O)(Oc2ccccc2)Oc2ccccc2)nc1` belongs inactive: -28.5%. Under `CC(C)C(=O)NC(Sc1ccccc1)C(Cl)(Cl)Cl` (stereo not given) stands inactive: 8.35%; under `O=P(Nc1nccs1)(c1ccccc1)c1ccccc1`, inactive: 1.01%. To `c1nnnn1CCn1cnnn1` belongs inactive: 15.2%; to `O=[N+]([O-])c1ccc(O)c(/C=N/Nc2ccc([N+](=O)[O-])cc2[N+](=O)[O-])c1`, inactive: 17%. `O=[N+]([O-])c1ncn(CCn2cnc([N+](=O)[O-])n2)n1`: the activity change is inactive: -7.33%. Under `CC(=O)NC(SC(=S)N(C)C)C(Cl)(Cl)Cl` (stereo not given) stands inactive: 3.55%.

As to `C(Cc1nn[nH]n1)Cc1nn[nH]n1`, the activity change is inactive: -12.5%. Regarding `O=C(OC1CN2CCC1CC2)c1cccc(Cl)c1` (stereo not given), the activity change was inactive: 1.57%. For `COc1ccc(N)c([N+](=O)[O-])c1[N+](=O)[O-]`, the activity change is inactive: -18.1%. Turning to `O=P(Nc1ccccn1)(c1ccc(Br)cc1)c1ccc(Br)cc1`, the activity change was inactive: 14.3%. Under `CN(C)C1(CNC(=O)c2ccc(Cl)c(S(N)(=O)=O)c2)CCCCC1` stands inactive: -0.322%.

Regarding `C[C@H]1OP(=O)(Oc2ccccc2)[C@H](O)[C@H](O)[C@H]1N=[N+]=[N-]` (stereo not given in full), the activity change was inactive: 9.64%. Under `O=P(Nc1nc2ccccc2s1)(c1ccccc1)c1ccccc1` stands inactive: -3.16%; under `Cc1ccc(OP(=O)(Nc2ccccn2)Oc2ccc(C)cc2)cc1`, inactive: 5.06%. As to `CC(=O)NC(SC(=S)N(CC(C)C)CC(C)C)C(Cl)(Cl)Cl` (stereo not given), the activity change was inactive: -19.9%. To `COC(=O)c1cc2c(s1)N=C(c1ccccc1)N(C)P2(=O)N1CCOCC1` (stereo not given) belongs inactive: -20.8%; to `CCC(=O)N1C2C3N(C(=O)CC)C1C1N(C(=O)CC)C(C(N1C(=O)CC)N3C(=O)CC)N2C(=O)CC`, inactive: 7.91%.

With `O=C(OC1CN2CCC1CC2)c1ccccc1` (stereo not given), the activity change is inactive: -9.71%.

Consider `CN(C)C(=O)Oc1noc2ccccc12`, for which the activity change is inactive: -9.49%. `Cc1ccccc1OP(=O)(Nc1ccccn1)Oc1ccccc1C`: the activity change was inactive: -6.32%. To `CC(NC(=O)COC(=O)C(O)(c1ccccc1)c1ccccc1)c1ccccc1` (stereo not given) belongs inactive: -6.3%; to `CCNC(=S)/N=C(\N)N[N+](=O)[O-]`, inactive: 20.5%; to `O=C(NC1CCS(=O)(=O)C1)NP(=S)(Oc1ccccc1)Oc1ccccc1` (stereo not given), inactive: -11.3%.

Consider `Cc1ccc(NP(=O)(Oc2cccc(C)c2)Oc2cccc(C)c2)nc1`, for which the activity change is inactive: -2.44%. Under `c1ccc(-c2nn[nH]n2)c(-c2nn[nH]n2)c1` stands inactive: -23.1%; under `O=P1(N(CCCl)CCCl)OCCC2CCCCN21` (stereo not given), inactive: 20.1%; under `COC(=O)C1(C)COP(=O)(NCc2ccccc2)OC1` (stereo not given), inactive: -19.8%.

For `N#C/C(=C\c1ccc(N(CCBr)CCBr)cc1)C(N)=O`, the activity change is inactive: -8.24%. Under `CC(=O)c1ccc(N2CC2c2ccncc2)cc1` (stereo not given) stands inactive: -9.87%; under `C[C@@H]1C=CCP(=O)(Oc2ccccc2)O1` (stereo not given in full), inactive: -13.7%. Under `C[C@H]1OP(=O)(Oc2ccccc2)C[C@@H]2O[C@@H]21` (stereo not given in full) stands inactive: 4.34%. Under `Cc1ccccc1CN(C)C(=O)COC(=O)C(O)(c1ccccc1)c1ccccc1` stands inactive: 52%. With `CC(=O)Nc1ccc(Oc2c([N+](=O)[O-])cc([N+](=O)[O-])cc2[N+](=O)[O-])cc1`, the activity change is inactive: -5.37%. To `CC(=O)Nc1ccc([As](=O)(O)O)c(O)c1` belongs inactive: -22.5%; to `CCOc1ccc(C2=NCC(CBr)S2)cc1` (stereo not given), inactive: -13.7%; to `O=P1(Nc2nc3ccc(Cl)cc3s2)COc2ccccc2O1` (stereo not given), inactive: -11.3%. Under `CCc1cc(O)c([N+](=O)[O-])c(C)c1[N+](=O)[O-]` stands inactive: -3.15%; under `CC(C)(C)C(=O)NC(Sc1ccccc1)C(Cl)(Cl)Cl` (stereo not given), inactive: 0.649%; under `CCCOP(=S)(Nc1nc(N)cc(=O)[nH]1)OCCC`, inactive: 10.8%. Under `Nc1cccc2c([As](=O)(O)O)cccc12` stands inactive: -15%. Take `CCOP(=O)(Nc1cccc2ccccc12)OCC`: the activity change was inactive: 0.79%. To `COc1cc(C2NCCC3(OCCO3)C2(C)C)cc(OC)c1OC` (stereo not given) belongs inactive: -4.58%; to `CS(=O)(=O)c1ccc(Cl)c(NC(=O)COC(=O)C(O)(c2ccccc2)c2ccccc2)c1`, inactive: 11.1%.

Consider `COc1cc(C(=O)NCC2(N3CCOCC3)CCCCC2)cc(Cl)c1OC(C)C`, for which the activity change was inactive: 2.37%.

With `O=[As](O)(O)c1cccnc1`, the activity change is inactive: -22.6%. To `O=C(OC1CN2CCC1CC2)c1ccc(Cl)cc1` (stereo not given) belongs inactive: -17.3%; to `O=[As](O)(c1cccc(O)c1)c1cccc(O)c1`, inactive: 24.6%; to `Cc1cccc(OCC(=O)OC2CN3CCC2CC3)c1` (stereo not given), inactive: -19.3%. To `NC(=O)Nc1ccc([As](=O)(O)O)cc1` belongs inactive: 5.64%; to `CN(C(=O)Cc1ccc(Cl)c(Cl)c1)[C@H]1CC[C@@]2(CCCO2)C[C@@H]1N1CCCC1`, inactive: 9.22%. For the compound `CN(C)C(=O)c1cc([N+](=O)[O-])cc2c1-c1c(cc([N+](=O)[O-])cc1[N+](=O)[O-])C2=O`, the activity change is inactive: -10.1%. `O=[N+]([O-])c1ccc2c(c1)nnn2O`: the activity change is inactive: 7.26%. Under `CN(C(=O)Cc1ccccc1)[C@@H]1CC[C@]2(CCCO2)C[C@H]1N1CCCC1` stands inactive: 11.3%. Under `CCOP1(=S)c2c(C)nn(CCC#N)c2N=C(c2ccc(F)cc2)N1C` (stereo not given) stands inactive: -4.9%; under `N#CCCN(C(=O)COC(=O)C(O)(c1ccccc1)c1ccccc1)c1ccc(F)cc1`, inactive: 0.16%.

In the case of `CS(=O)(=O)c1cc([N+](=O)[O-])c2no[n+]([O-])c2c1`, the activity change was inactive: -0.128%. As to `O=P(Nc1nccs1)(c1ccccc1)c1nc2ccccc2s1` (stereo not given), the activity change was inactive: -9.41%. To `CCOP1(=S)c2c(C)nn(CCC#N)c2N=C(c2ccccc2F)N1C` (stereo not given) belongs inactive: -8.47%; to `Nc1ccccc1[As](=O)(O)c1ccccc1`, inactive: -27%; to `O=C(O)COc1ccc([As](=O)(O)O)cc1[N+](=O)[O-]`, inactive: -2.69%. Turning to `O=P1(Nc2ncccn2)COc2ccccc2OC1`, the activity change was inactive: 12.8%. To `O=P1(Nc2ccc(Br)cn2)COc2ccccc2OC1` belongs inactive: -3.46%; to `NS(=O)(=O)c1cccc(NC(=O)COC(=O)C(O)(c2ccccc2)c2ccccc2)c1`, inactive: -6.26%.
